Legend:
[1] = molecular target: human orexin-2 receptor (hOX2R) (Homo sapiens (Human), UniProt O43614); assay: Measurement of orexin antagonistic activity (intracellular Ca2+ fluorescence, FDSS), hOX2R; assay type: cell-based; conditions: CHO cells forcibly expressing hOX2R; ligand peptide (modified human orexin-A) 3 nM; maximum fluorescence intensity; read-out: IC50 Value OX2
Protocol: (§1) The antagonistic activities of the test compounds on human orexin-1 receptor (hOX1R) and orexin-2 receptor (hOX2R) were measured by modifying from the method described in literature (Toshikatsu Okumura et al., Biochemical and Biophysical Research Communications 280, 976-981, 2001). Chinese hamster ovary (CHO) cells forcibly expressing the hOX1R and hOX2R were seeded into a 96 well Black clear bottom plate (Nunc) at 20,000 cells per well, which were cultured in Ham's F-12 medium containing 0.1 mM MEM non-essential amino acids, 0.5 mg/ml G418, 10% fetal bovine serum (all by Invitrogen) for 16 hours under the conditions of 37° C., 5% CO2. After removing the medium, 100 μL of 0.5 μM Fluo-4AM ester (Dojin) in an assay buffer (25 mM HEPES (Dojin), Hank's balanced salt solution (Invitrogen), 0.1% bovine serum albumin, 2.5 mM probenecid, 200 μg/ml Amaranth (all by Sigma-Aldrich), pH 7.4) was added and the cells were incubated for 60 minutes at 37° C., 5% CO2. After removing the assay buffer containing […] ester, the test compound was dissolved in dimethyl sulfoxide to be 10 mM and diluted with the assay buffer, 150 μL of which was added and incubated for 30 minutes.
(§2) The reaction was measured for the fluorescence intensity of each well every second for 3 minutes using Functional Drug Screening System (FDSS; Hamamatsu Photonics K.K.), and the antagonistic activity was determined using the maximum fluorescence intensity as the indicator of intracellular Ca2+ concentration.

Sequences of proteins named here, by UniProt entry; tags and fusion partners are left off.
UniProt O43614, whole entry: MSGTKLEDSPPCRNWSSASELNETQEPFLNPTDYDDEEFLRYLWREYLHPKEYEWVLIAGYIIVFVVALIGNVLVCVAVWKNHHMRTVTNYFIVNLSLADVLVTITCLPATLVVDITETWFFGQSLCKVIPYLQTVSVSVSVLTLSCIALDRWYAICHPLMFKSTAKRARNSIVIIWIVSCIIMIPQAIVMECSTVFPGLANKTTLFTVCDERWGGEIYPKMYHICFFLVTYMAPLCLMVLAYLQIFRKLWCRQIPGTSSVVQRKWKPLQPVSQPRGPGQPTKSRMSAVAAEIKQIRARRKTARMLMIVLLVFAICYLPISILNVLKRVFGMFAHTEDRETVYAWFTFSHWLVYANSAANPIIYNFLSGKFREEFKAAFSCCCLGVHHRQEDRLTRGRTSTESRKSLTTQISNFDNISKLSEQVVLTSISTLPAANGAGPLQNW
UniProt O43613, whole entry: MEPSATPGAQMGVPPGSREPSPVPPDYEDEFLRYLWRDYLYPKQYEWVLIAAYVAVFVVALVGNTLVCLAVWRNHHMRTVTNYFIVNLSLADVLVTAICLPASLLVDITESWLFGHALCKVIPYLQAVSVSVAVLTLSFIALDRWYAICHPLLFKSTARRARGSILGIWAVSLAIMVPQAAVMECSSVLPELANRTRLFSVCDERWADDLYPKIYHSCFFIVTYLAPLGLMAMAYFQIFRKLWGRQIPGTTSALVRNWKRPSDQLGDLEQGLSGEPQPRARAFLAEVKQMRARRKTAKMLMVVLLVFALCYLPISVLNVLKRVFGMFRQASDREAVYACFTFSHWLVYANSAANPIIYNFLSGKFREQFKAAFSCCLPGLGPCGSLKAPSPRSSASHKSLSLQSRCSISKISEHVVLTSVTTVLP

[2] = molecular target: human orexin-1 receptor (hOX1R) (Homo sapiens (Human), UniProt O43613); assay: Measurement of orexin antagonistic activity (intracellular Ca2+ fluorescence, FDSS), hOX1R; assay type: cell-based; conditions: CHO cells forcibly expressing hOX1R; ligand peptide (modified human orexin-A) 300 pM; maximum fluorescence intensity; read-out: IC50 Value OX1
Protocol: as §1, with “Chinese” for “The antagonistic activities of the test compounds on human orexin-1 receptor (hOX1R) and orexin-2 receptor (hOX2R) were measured by modifying from the method described in literature (Toshikatsu Okumura et al., Biochemical and Biophysical Research Communications 280, 976-981, 2001). Chinese”
as §2

| SMILES | IC50 [1] | IC50 [2] |
| --- | --- | --- |
| Cc1ccc(-n2nccn2)c(C(=O)N2CCCOC2Cc2cnn(-c3ccc(F)cn3)c2)c1 (single isomer, unassigned; (-)) [Example 47, (−)-[2-{[1-(5-Fluoropyridin-2-yl)-1H-pyrazol-4-yl]methyl}-1,3-oxazinan-3-yl][5-methyl-2-(2H-1,2,3-triazol-2-yl)phenyl]methanone] | 3.6 nM | – |
| Cc1ccc(-n2nccn2)c(C(=O)N2CCCOC2Cn2cc(-c3ccc(F)cn3)cn2)c1 (single isomer, unassigned; (-)) [Example 4, (−)-(2-[[4-(5-fluoropyridin-2-yl)-1H-pyrazol-1-yl]-methyl]-1,3-oxazinan-3-yl)[5-methyl-2-(2H-1,2,3-triazol-2-yl)phenyl] methanone] | 3.2 nM | – |
| Cc1ccc(-n2nccn2)c(C(=O)N2CC(C)COC2Cn2cc(-c3ccc(F)cn3)cn2)c1 (single isomer, unassigned; (-)) [Example 40, (−)-[(2S*,5S*)-2-{[4-(5-Fluoropyridin-2-yl)-1H-pyrazol-1-yl]methyl}-5-methyl-1,3-oxazinan-3-yl][5-methyl-2-(2H-1,2,3-triazol-2-yl)phenyl]methanone] | 1.4 nM | – |
| O=C(c1cc(F)ccc1-c1ncccn1)N1CCOC1Cn1cc(-c2ccc(F)cc2)cn1 (racemic) [Example 25, (±)-(2-[[4-(4-fluorophenyl)-1H-pyrazol-1-yl]methyl]-1,3-oxazolidin-3-yl)[5-fluoro-2-(pyrimidin-2-yl)phenyl] methanone] | 107 nM | 98.6 nM |
| Cc1ccc(-n2nccn2)c(C(=O)N2[C@H](Cn3ccc(-c4ccc(F)cn4)n3)OC[C@@H]2C)c1 [Example 9, (−)-[(2S,4S)-2-[[3-(5-fluoropyridin-2-yl)-1H-pyrazol-1-yl]-methyl]-4-methyl-1,3-oxazolidin-3-yl] [5-methyl-2-(2H-1,2,3-triazol-2-yl)phenyl] methanone] | 41.5 nM | – |
| Cc1ccc(-c2ncccn2)c(C(=O)N2CCOC2Cn2cc(-c3ccc(F)cc3)cn2)c1 (racemic) [Example 24, (±)-(2-[[4-(4-fluorophenyl)-1H-pyrazol-1-yl]methyl]-1,3-oxazolidin-3-yl)[5-methyl-2-(pyrimidin-2-yl)phenyl]methanone] | – | 34.6 nM |

The remaining molecules from weak to strong by IC50 [1], led by results:

| IC50 [1] | IC50 [2] | SMILES |
| --- | --- | --- |
| 225 nM | 16.9 nM | O=C(c1ccccc1-c1ncccn1)N1CCOC1Cn1ccc(-c2ccc(F)cn2)n1 (racemic) [Example 15, (±)-(2-[[3-(5-fluoropyridin-2-yl)-1H-pyrazol-1-yl]methyl]-1,3-oxazolidin-3-yl) [2-(pyrimidin-2-yl)phenyl] methanone] |
| 54.9 nM | – | Cc1ccc(-n2nccn2)c(C(=O)N2[C@H](C)CO[C@H]2Cn2ccc(-c3ccc(F)cn3)n2)c1 [Example 7, [(2S,4R)-2-[[3-(5-fluoropyridin-2-yl)-1H-pyrazol-1-yl]-methyl]-4-methyl-1,3-oxazolidin-3-yl] [5-methyl-2-(2H-1,2,3-triazol-2-yl)phenyl] methanone] |
| 51.8 nM | – | O=C(c1cc(F)ccc1-c1ncccn1)N1CCCOC1Cc1cnn(-c2ccc(F)cn2)c1 (single isomer, unassigned; (-)) [Example 44, (−)-[2-[[1-(5-fluoropyridin-2-yl)-1H-pyrazol-4-yl]methyl]-1,3-oxazinan-3-yl] [5-fluoro-2-(pyrimidin-2-yl)phenyl]methanone] |
| 18.5 nM | – | Cc1ccc(-n2nccn2)c(C(=O)N2CCOC2Cn2ccc(-c3ccc(F)cn3)n2)c1 (single isomer, unassigned; (-)) [Example 1, (−)-(2-{[3-(5-Fluoropyridin-2-yl)-1H-pyrazol-1-yl]methyl}-1,3-oxazolidin-3-yl)[5-methyl-2-(2H-1,2,3-triazol-2-yl)phenyl]methanone] |
| 11.5 nM | – | Cc1ccc(-n2nccn2)c(C(=O)N2C[C@H](C)O[C@H]2Cn2cc(-c3ccc(F)cn3)cn2)c1 [Example 5, (−)-[(2S,5S)-2-{[4-(5-Fluoropyridin-2-yl)-1H-pyrazol-1-yl]methyl}-5-methyl-1,3-oxazolidin-3-yl][5-methyl-2-(2H-1,2,3-triazol-2-yl)phenyl]methanone] |
| 9.8 nM | – | Cc1ccc(-n2nccn2)c(C(=O)N2C[C@@H](C)O[C@H]2Cn2cc(-c3ccc(F)cn3)cn2)c1 [Example 6, (−)-[(2S,5R)-2-[[4-(5-fluoropyridin-2-yl)-1H-pyrazol-1-yl]methyl]-5-methyl-1,3-oxazolidin-3-yl] [5-methyl-2-(2H-1,2,3-triazol-2-yl)phenyl] methanone] |
| 9.5 nM | 9.7 nM | Cc1ccc(-c2ncccn2)c(C(=O)N2CCOC2Cn2ccc(-c3ccc(F)cn3)n2)c1 (racemic) [Example 14, (±)-2-[[3-(5-fluoropyridin-2-yl)-1H-pyrazol-1-yl]methyl)-1,3-oxazolidin-3-yl] [5-methyl-2-(pyrimidin-2-yl)phenyl]methanone] |
| 7.7 nM | – | Cc1ccc(-n2nccn2)c(C(=O)N2CC(C)COC2Cn2cc(-c3ccc(F)cn3)cn2)c1 (single isomer, unassigned; (-)) [Example 49, (−)-[(2S*,5R*)-2-{[4-(5-Fluoropyridin-2-yl)-1H-pyrazol-1-yl]methyl}-5-methyl-1,3-oxazinan-3-yl][5-methyl-2-(2H-1,2,3-triazol-2-yl)phenyl]methanone] |
| 3.2 nM | – | Cc1ccc(-c2ncccn2)c(C(=O)N2CCCOC2Cn2cc(-c3ccc(F)cc3)cn2)c1 (single isomer, unassigned; (-)) [Example 43, (−)-[2-[[4-(4-fluorophenyl)-1H-pyrazol-1-yl]methyl]-1,3-oxazinan-3-yl][5-methyl-2-(pyrimidin-2-yl)phenyl]methanone] |
